## Yeast mating assay B: variants of the scFv Ab-14

Data: MIT Lincoln Laboratory AlphaSeq set, Li et al. 2023, doi:10.1038/s41467-023-39022-2, as distributed in FLAb.

Target: peptide PDVDLGDISGINAS, taken from heptad repeat 2 (HR2) of SARS-CoV-2 spike.

Parent scFv Ab-14: VH joined to VL by three GGGGS repeats. Changes lie in the light chain CDRs alone.
VH: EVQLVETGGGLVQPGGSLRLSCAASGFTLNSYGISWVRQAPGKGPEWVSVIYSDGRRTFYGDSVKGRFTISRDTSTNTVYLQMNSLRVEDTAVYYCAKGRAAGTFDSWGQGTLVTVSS
VL: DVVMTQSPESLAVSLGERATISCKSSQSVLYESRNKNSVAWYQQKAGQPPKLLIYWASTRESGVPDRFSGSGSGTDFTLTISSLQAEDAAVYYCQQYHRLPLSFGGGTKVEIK

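The parent was found by panning a naive human phage display library on the peptide. This is the validation round: designs drawn from the data on random variants, tested in the same kind of assay. Their group label is 14L_GP_Gen (GP: Gaussian process model; Gen: genetic algorithm; a sequence that several methods proposed may carry one label only). AlphaSeq pools MATa yeast showing the antibodies with MATalpha yeast showing the peptide. Pairs that bind mate more often; barcode pairs of the diploids are counted by sequencing. Each replicate has its own calibration line, from reference interactions of the BCL2 family. Each pool was mated in six replicate cultures.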

The parent's light chain CDRs are KSSQSVLYESRNKNSVA, WASTRES, QQYHRLPLS; each variant's own CDRs replace them letter for letter. Affinities are written as log10 Kd with Kd in nM; a lower number is a better binder. A mean of the replicates is given; it leaves out those without a signal.

CDR-L1 | CDR-L2 | CDR-L3 | log10 Kd (nM) by replicate | mean log10 Kd (nM) | control signals
KLSQSVLYESRNKNSVA | NASTRES | QDYHRLPLM | -0.10 -0.27 -0.31 -0.05 -0.25 0.08 | -0.15 | 1/18 (1.78)
KVSPSYLYESRNKNSVA | EASTRES | QQYHRLPLS | -0.06 -0.33 -0.21 -0.49 -0.13 0.00 | -0.20 | 0/18
KVSQSELYESRNKNNVA | EASTRES | QQYHRLPLS | 0.93 0.48 0.81 0.96 0.49 0.89 | 0.76 | 0/18
KVQQSELYESRNKNSVA | QASTRES | QQYHRLPLS | 0.30 0.05 0.07 -0.07 0.17 0.23 | 0.13 | 1/18 (2.47)
KLSQSNLYESRNKNSVA | NASTRLM | QQYHRLPLS | 0.02 -0.10 -0.29 -0.13 -0.21 -0.10 | -0.13 | 2/18 (2.40)
KLSQSVDYESRNKNAVA | EASTRES | QQYHRLPLS | 0.08 -0.24 -0.33 -0.22 -0.51 -0.10 | -0.22 | 0/18
KVQQSVPYESRNKNSVA | NASTRMS | QQYHRLPLS | 0.00 -0.07 -0.26 -0.04 -0.01 0.28 | -0.02 | 0/18
KLSQSSLYESRNKNSVA | NASTRMS | QQYHRLPLS | -0.16 -0.18 0.09 -0.27 -0.08 0.13 | -0.08 | 0/18
KLQQSELYESRNKNSVA | SASTRCS | QQYHRLPLS | -0.17 -0.12 -0.18 -0.35 -0.22 -0.15 | -0.20 | 2/18 (2.70)
KLSQSSLYESRNKNSVA | NASTREQ | QQYHRLPLS | 0.16 0.09 -0.15 -0.03 0.20 0.35 | 0.10 | 1/18 (2.12)
KLHQSWLYESRNKNSVA | NASQRES | QQYHRLPLS | 0.07 0.12 0.06 0.12 0.14 0.33 | 0.14 | 0/18
KLSQSDLYESRNSNSVA | EASTRES | QQYHRLPLS | -0.29 -0.39 -0.24 -0.45 -0.34 -0.34 | -0.34 | 1/18 (2.77)
KVSQSMLYESRNKNSVA | HASTRES | QQYHRLPLS | 0.09 0.24 -0.19 -0.29 -0.13 -0.14 | -0.07 | 0/18
KLMQSSLYESRNKNSVA | NASTRES | QQYHRLPLS | -0.02 -0.02 -0.07 0.04 0.01 0.11 | 0.01 | 1/18 (2.65)
KLSGSELYESRNKNSVA | NASTRMS | QQYHRLPLS | -0.18 -0.32 -0.38 -0.57 -0.42 -0.24 | -0.35 | 1/18 (2.65)
KLQQSHLYESRNKNSVA | DASTRLS | QQYHRLPLS | 0.49 0.00 0.12 -0.03 0.17 0.13 | 0.15 | 3/18 (3.04)
KVSGSHLYESRNKNSVA | EASTRES | QQYHRLPLS | -0.19 -0.04 -0.52 -0.37 -0.73 -0.22 | -0.34 | 0/18
KLSQSWLYESRNKNSVA | NASTRLS | QQYHRLPLS | -0.23 -0.47 -0.47 -0.46 -0.27 -0.08 | -0.33 | 0/18
KLSQSVLYESRNKNNVA | NASYRES | QQYHRLPLS | -0.21 -0.48 -0.47 -0.47 -0.39 -0.33 | -0.39 | 1/18 (2.19)
KLYQSELYESRNKNSVA | NASTRED | QQYHRLPLS | -0.16 -0.36 -0.36 -0.52 -0.45 -0.30 | -0.36 | 2/18 (3.72)
KLDQSVDYESRNKNSVA | NASTRES | QQYHRLPLS | 0.14 0.21 -0.09 -0.17 0.00 -0.10 | 0.00 | 1/18 (2.65)
KSPQSVPYESRNKNSVA | EASTRES | QQYHRLPLS | 0.50 0.12 0.35 0.07 -0.05 0.77 | 0.29 | 0/18
KLSQSMLYESRNKNSVA | NASQRCS | QQYHRLPLS | 0.17 0.23 0.01 0.05 0.03 0.32 | 0.14 | 1/18 (2.74)
KLSQSVLYEMRNKNSVA | NASTRLS | QQYHRLPLS | 0.52 0.29 0.28 0.20 0.15 0.46 | 0.32 | 0/18
KLAQSELYESRNKNSVA | EASTRES | QQYHRLPLS | -0.36 -0.29 -0.61 -0.66 -0.69 -0.15 | -0.46 | 1/18 (3.20)
KMSQSVDYESRNKNSVA | DASTRES | QQYHRLPLS | -0.26 0.02 0.03 -0.25 -0.24 -0.03 | -0.12 | 0/18
KLSQSVLYESRLKNSVA | NASQRES | QQYHRLPLS | 0.13 -0.08 0.02 -0.18 0.20 0.18 | 0.05 | 1/18 (2.99)
KLQQSVLYESRNKNSVA | HASTRLS | QQYHRLPLS | 0.81 0.54 0.31 0.72 0.67 0.61 | 0.61 | 2/18 (2.54)
KLMQSELYESRNKNSVA | NASTRLS | QQYHRLPLS | 0.36 0.17 -0.35 -0.28 0.89 0.16 | 0.16 | 0/18
KLSLSVLYESRNKNSVA | EASTRES | QQYHRLPLS | -0.10 -0.07 -0.26 -0.21 -0.08 0.09 | -0.11 | 0/18
KLEQSVGYESRNKNSVA | NASQRES | QQYHRLPLS | 0.69 0.84 0.40 0.34 0.55 0.34 | 0.52 | 0/18
KIEQSQLYESRNKNSVA | NASTRES | QQYHRLPLS | -0.20 -0.56 -0.72 -0.67 -0.73 -0.29 | -0.53 | 0/18
KLSQSWLYESRNKNNVA | NASQRMS | QQYHRLPLS | -0.10 -0.04 -0.65 -0.72 -0.59 -0.18 | -0.38 | 0/18
KLSQSVLYESRNKNAVA | AASTRES | QQYHRLPLS | -0.10 -0.14 -0.05 -0.19 -0.09 0.03 | -0.09 | 0/18
KLSESVLYESRNKNAVA | NASTRES | QQYHRLPLS | -0.23 -0.30 -0.46 -0.53 -0.36 -0.26 | -0.36 | 1/18 (3.51)
KLSQSELYESRNSNSVA | NASTRES | QQYHRLPLS | -0.04 -0.26 -0.31 -0.42 -0.28 -0.15 | -0.25 | 0/18
KLSQSKLYESRNKNNVA | HASTRES | QQYHRLPLS | 0.20 0.22 0.33 -0.19 0.12 0.20 | 0.15 | 1/18 (4.34)
KLQGSVLYESRNKNSVA | GASTRES | QQYHRLPLS | -0.39 -0.61 -0.45 -0.52 -0.80 -0.51 | -0.55 | 2/18 (3.00)
KVSQSHLYESRNKNSVA | DASTRES | QSYHRLPLS | -0.09 -0.28 -0.39 -0.43 -0.49 -0.27 | -0.32 | 0/18

Repeated from above, the 2 best binders with a signal in all replicates:

CDR-L1 | CDR-L2 | CDR-L3 | log10 Kd (nM) by replicate | mean log10 Kd (nM) | control signals
KLQGSVLYESRNKNSVA | GASTRES | QQYHRLPLS | -0.39 -0.61 -0.45 -0.52 -0.80 -0.51 | -0.55 | 2/18 (3.00)
KIEQSQLYESRNKNSVA | NASTRES | QQYHRLPLS | -0.20 -0.56 -0.72 -0.67 -0.73 -0.29 | -0.53 | 0/18

The parent sequence was in this pool as ten entries: three were never detected, three once, and four in most replicates, with averages from 0.34 to 2.37. As a blank, each scFv also met three strains without target: over all light chain designs, 4% of these pairings were detected, typically at 2.64 and seldom below 1.59. The control count says in how many pairings with the empty strains this scFv gave a signal, with their mean in brackets. The range of this assay differs from that of the first round, and the authors advise against merging the two. In the paper, a design with two or fewer of six values counts as a poor binder.